Yeast mating assay B: variants of the scFv Ab-14

Target: peptide PDVDLGDISGINAS, taken from heptad repeat 2 (HR2) of SARS-CoV-2 spike.

Ab-14 is the parent antibody, in scFv form: VH, then a 15-residue (Gly4Ser)3 linker, then VL. The heavy chain is unchanged in all variants.
VH: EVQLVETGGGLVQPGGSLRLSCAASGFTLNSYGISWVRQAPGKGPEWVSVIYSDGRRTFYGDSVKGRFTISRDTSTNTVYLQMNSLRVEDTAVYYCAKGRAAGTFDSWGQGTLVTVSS
VL: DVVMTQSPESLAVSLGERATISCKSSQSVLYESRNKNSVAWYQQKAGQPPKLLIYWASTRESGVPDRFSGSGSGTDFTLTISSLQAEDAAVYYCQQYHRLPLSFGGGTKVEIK

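Phage display of a naive human antibody library on the peptide gave the parent. Designed CDR sequences, proposed from the first random library and measured here. Their group label is 14L_En_Gen (En: ensemble of fine-tuned language models; Gen: genetic algorithm). Affinity was read by AlphaSeq, a pooled yeast mating assay with surface-displayed partners. Mating (16 h, 30 °C) was followed by selection of diploids and sequencing of their barcodes. Each replicate has its own calibration line, from reference interactions of the BCL2 family. There are six technical replicates.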

Each variant is given by its three light chain CDRs, as the data file delimits them; those of the parent are KSSQSVLYESRNKNSVA, WASTRES, QQYHRLPLS. Values are log10 of the apparent Kd in nM; lower means stronger binding. "ND" marks a missing value. The strain was present, yet no cells mated with the target were sequenced in that replicate, which points to weak or no binding. The authors averaged sequences with at least three values out of six and counted those with two or fewer as poor binders. Nonspecific signal, from three strains lacking the peptide, appeared in 4% of pairings of all light chain designs, centred on 2.64 (5% of these signals below 1.59); values are not corrected for it. The control count says in how many pairings with the empty strains this scFv gave a signal, with their mean in brackets. A sequence measured in both rounds can read differently, since the two assays cover different ranges.

| # | CDR-L1 | CDR-L2 | CDR-L3 | log10 Kd, replicates | signal with controls |
|---|---|---|---|---|---|
| 1 | MISQVLNMLTREGNNVA | DLQERED | QQYFRLPLS | 1.03 / 1.59 / 1.16 / 0.13 / 1.13 / 2.18 | 0 of 18 |
| 2 | MVSQLMLWGHLAKNSIA | EAEHRCN | QQYDRLPLF | 2.39 / ND / 1.11 / ND / 1.17 / 0.98 | 1 of 18 (1.63) |
| 3 | MVTQMAMSGMTNKRSVA | NANTRED | QQYHRLPLI | 0.83 / 0.49 / 0.53 / 0.63 / 0.64 / 0.60 | 2 of 18 (2.08) |
| 4 | NIYQAMHTLSQMKNNVA | DVNERGD | QQYFRLPLS | 0.76 / 0.40 / 0.35 / 0.29 / 0.19 / 0.34 | 3 of 18 (2.39) |
| 5 | IVSQVMSWGIHAKNSIA | EAQMRLN | QQYDRLPLF | 1.75 / 2.68 / 1.69 / 1.78 / 1.89 / 2.22 | 5 of 18 (2.41) |
| 6 | KIGGTLNQLMHKKNNVA | DLVMREN | QQYFRLPLS | 0.48 / 0.88 / 0.75 / 0.85 / 1.02 / 0.67 | 0 of 18 |
| 7 | KISQMVRVGSTHTNSIA | EEATRAK | QQYHRLPLF | 0.99 / 0.54 / 0.64 / 0.59 / 0.61 / 1.40 | 0 of 18 |
| 8 | KVSEFMRGLMKLKDSIA | DNETRGA | QQYDRLPLS | 1.69 / 1.77 / ND / 1.66 / 1.87 / 1.97 | 1 of 18 (4.04) |
| 9 | MVSQLMLWGLHAKNSIA | EAQTRCN | QQYDRLPLF | ND / 2.28 / 2.47 / ND / ND / 1.97 | 0 of 18 |
| 10 | MISQLYNMGTFAINSVA | QAEIRNA | QQYDRLPLI | 2.46 / 1.27 / 2.09 / 2.36 / 2.97 / 2.26 | 1 of 18 (2.73) |
| 11 | MISQLWNMGQFAINSVA | QASLRCN | QQYDRLPLM | ND / ND / ND / ND / 2.28 / ND | 0 of 18 |
| 12 | HMSMLTLGGMRARNSVA | QMTTREN | QQYDRLPLT | 0.99 / 0.85 / 0.89 / 0.28 / 1.43 / 0.84 | 0 of 18 |
| 13 | MISQVLNTLTRTGNNVA | DLQERED | QQYFRLPLS | ND / 0.73 / ND / 1.84 / 1.06 / ND | 0 of 18 |
| 14 | KLVNFMNRGTHHTSNIA | DAQTRLD | QQYYRLPLA | 0.83 / 0.81 / 0.84 / 0.54 / 0.75 / 0.70 | 0 of 18 |
| 15 | HITMGMYVSGRHTSNIA | QAEERAK | QQYDRLPLI | ND / 1.83 / ND / ND / 1.66 / 3.65 | 1 of 18 (1.74) |
| 16 | KLTMITGLEKVQKNNVA | EMETREE | QQYNRLPLS | -0.11 / -0.10 / -0.22 / -0.35 / -0.21 / -0.16 | 1 of 18 (2.60) |
| 17 | SIGLATMLEEYARNSVA | NNSTRES | QQYDRLPLS | 2.02 / 1.75 / 2.96 / 1.97 / 1.96 / 2.35 | 3 of 18 (2.34) |
| 18 | KIGATLNTLMHTKNNVA | DLVTREQ | QQYHRLPLS | 0.57 / 0.48 / 0.32 / 0.44 / 0.55 / 0.95 | 1 of 18 (1.98) |
| 19 | MIYGAQRELGRAANSIA | DNVTRYQ | QQYERLPLS | ND / ND / ND / 3.90 / 2.98 / ND | 0 of 18 |
| 20 | IVSQLMLWGLHAKNSIA | EAEMRTN | QQYDRLPLF | ND / ND / ND / ND / ND / ND | 0 of 18 |
| 21 | TISQLMNMGQFAIQSVA | QASIRNS | QQYDRLPLM | 1.13 / 0.99 / 0.99 / 2.27 / 0.70 / 1.63 | 1 of 18 (2.13) |
| 22 | MMSQVTGLGQRHRNNVA | QTSTRED | QQYDHLPLI | 1.02 / 0.49 / 0.82 / 0.63 / 0.75 / 0.94 | 0 of 18 |
| 23 | KLSMLTEMEHVNRNSVA | ELVTRMS | QQYNRLPLS | 0.96 / 0.76 / 0.84 / 1.03 / 1.27 / 2.38 | 0 of 18 |
| 24 | HMSALTLQGMRMRNSVA | QMTTREN | QQYDHLPLA | 2.01 / 1.81 / 1.69 / 2.37 / 0.91 / ND | 0 of 18 |
| 25 | MISQLYNFGTFAINSVA | QASLRCN | QQYDRLPLM | ND / 2.47 / ND / ND / ND / 1.47 | 1 of 18 (1.93) |
| 26 | MMSQVTGMESRQINNVA | QTSTREQ | QQYDRLPLI | 1.13 / 0.74 / 0.62 / 1.19 / 0.06 / 0.49 | 0 of 18 |
| 27 | KITATMRFEQKNSNNIA | EVSTRSK | QQYYRLPIS | 1.38 / 0.51 / 1.10 / 0.51 / 0.26 / 0.37 | 0 of 18 |
| 28 | KLSMTAEMELKNRNSVA | ELVTRMS | QQYNRLPLS | 0.28 / 0.00 / -0.12 / 0.11 / 0.12 / 0.38 | 1 of 18 (3.48) |
| 29 | MISQLYNMGQFAINSVA | QANLRNE | QQYDRLPLA | ND / ND / ND / ND / 1.91 / ND | 0 of 18 |
| 30 | KFSQMVNSMSVSHSAVA | EMSTREN | QQYNRLPLS | 0.53 / 0.33 / 0.17 / -0.08 / 0.44 / 0.40 | 2 of 18 (2.95) |

From the AlphaSeq antibody data of Li et al. 2023 (doi:10.1038/s41467-023-39022-2), copy in the FLAb collection.